One data set has as its system SYNOVIOCYTES
The data set can be described thus: in vitro cytotoxic activity of antibiotics against dog synoviocytes. The format is cell-based. The text has this:
(§1) Table 1 and 2 represent in vitro evaluation of the cytotoxic activity of different conventional antibiotics, as assessed for toxicity against dog cells (Table 1) or horse cells (Table 2). Similar toxicity profiles would also be anticipated for human cells. The antibiotics with the highest IC50 values are considered non-cytotoxic, while those with lower values are considered more cytotoxic, and unsuitable for co-administration with activated MSC or activated iMSCs.

Another data set has as its system CHONDROCYTES
The data set can be described thus: in vitro cytotoxic activity of antibiotics against dog chondrocytes. The format is cell-based.
Source text: as §1

With Ampicillin sulbactam, the “IC50 (cytotoxicity)” value stood at 3.074 mg/mL in the data set on SYNOVIOCYTES and 8.635 mg/mL with CHONDROCYTES.

The values above are taken from patent US20240009246A1, “CELLULAR-ANTIMICROBIAL COMBINATION COMPOSITION AND METHODS FOR TREATMENT OF BACTERIAL INFECTIONS OF JOINTS AND SOFT TISSUES” (priority 2021, published 2024).
